From patent publication US6528675B1, “Cyanohydrin ethers and esters as high-sensitivity enzyme substrates” (The Regents of the University of California, priority 2001, dated 2003)

Assay: Change in optical properties, UV absorption of esters and hydrolysis products
Assay type: physicochemical
Details: for ε (molar absorptivity): in M-1 cm-1 (unit assumed)
Text: The substrates representing the invention were (R/S)-acetic acid cyano-(6-methoxynaphthalen-2-yl)-methyl ester (the title compound of Synthesis Example 1 above) and (trans/cis)-3-(2,2-dichlorovinyl)-2,2-dimethylcyclopropanecarboxylic acid cyano-(6-methoxynaphthalen-2-yl)-methyl ester (the title compound of Synthesis Example 2 above).

Substance: naphthol
- OD (optical density) (tris-maleate pH 6.5, 10 μM): 0.105
- ε (molar absorptivity) (tris-maleate pH 6.5, 10 μM): 2,600
- OD (optical density) (tris-maleate pH 7.5, 10 μM): 0.155
- λmax (tris-maleate pH 7.5, 10 μM): 284 nm
- ε (molar absorptivity) (tris-maleate pH 7.5, 10 μM): 3,870
- OD (optical density) (tris-maleate pH 8.5, 10 μM): 0.170
- λmax (tris-maleate pH 8.5, 10 μM): 283 nm
- ε (molar absorptivity) (tris-maleate pH 8.5, 10 μM): 4,250
